Measured values from patent publication US20130217616A1 (OMEROS, published 2013).

T1: MBL/Ficolin associated protein-1 (MAP-1) from normal human serum (human, UniProt P48740 20-363)
T1 construct: Native protein as present in normal human serum (co-immunoprecipitation); also called FAP; serum MAP-1
T1 sequence: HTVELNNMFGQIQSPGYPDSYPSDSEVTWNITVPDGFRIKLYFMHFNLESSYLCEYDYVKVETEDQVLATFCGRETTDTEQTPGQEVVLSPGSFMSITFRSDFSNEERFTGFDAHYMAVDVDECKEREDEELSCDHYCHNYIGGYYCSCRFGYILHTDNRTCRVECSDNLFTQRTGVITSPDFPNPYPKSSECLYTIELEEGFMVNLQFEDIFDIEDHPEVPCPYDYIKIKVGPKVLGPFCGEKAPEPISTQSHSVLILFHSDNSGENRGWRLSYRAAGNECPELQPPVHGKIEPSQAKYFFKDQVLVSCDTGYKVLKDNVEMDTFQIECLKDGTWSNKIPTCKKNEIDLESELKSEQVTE


How the values were obtained:
[1] = target: T1, MBL/Ficolin associated protein-1 …; assay: co-immunoprecipitation from normal human serum, western blot
Method: Specific immunoprecipitation of MAP-1 from serum was performed with the MAP-1 specific mAb 20C4 (raised against the 17 MAP-1 specific C-terminal peptide) or mAb 8B3, a monoclonal antibody reacting against the common heavy chain of MASP-1/3 used as control precipitation antibody. A total of 10 μg of anti MAP-1 or MASP-1/3 antibody was allowed to bind to sheep anti mouse or rabbit IgG Dynabeads (M−280, cat. 112.02D/112.04D, Dynal/Invitrogen). After a washing step the beads were applied to a pool of normal human serum (diluted 1:1 in TBS) and incubated end over end for 1 hour at 4° C. After final washing steps and magnetic separation the beads were boiled in SDS loading buffer and subjected to SDS-PAGE and western blotting probed with antibodies to MAP-1, MBL, and Ficolin-3.
The same precipitation procedure as described above was performed with mAbs to MBL (Hyb 131-11, Bioporto, Denmark), Ficolin-2 (FCN219) and Ficolin-3 (FCN334). To compensate for differences in serum concentrations of MBL, Ficolin-2 and -3 were precipitated from 1 ml, 300 μl and 100 μl serum, respectively. Samples were analyzed by SDS-PAGE and western blotting probed with pAb against MAP-1.

[2] = target: T1, MBL/Ficolin associated protein-1 …; assay: immunoprecipitation of serum Ficolin-3 with clone 334, western blot with biotin labeled mAb 8B3 (FIG. 9)
Description: FIG. 9: Immunoprecipitation. Immunoprecipitation of serum Ficolin/MBL with mAb anti-MBL 131-11, anti-Ficolin-2 clone 219, and anti-Ficolin-3 clone 334. Followed by Dynal magnetic bead separation, SDS-PAGE, Western blot and biotin labeled anti-MASP-1/MASP-3 clone 8B3 as signal antibody.

| binding result [1] | binding result [2] | Binder |
| --- | --- | --- |
| binds |  | Ficolin-2 in normal human serum (other, UniProt Q15485 26-313, looked up, Native oligomeric serum protein) LQAADTCPEVKMVGLEGSDKLTILRGCPGLPGAPGPKGEAGTNGKRGERGPPGPPGKAGPPGPNGAPGEPQPCLTGPRTCKDLLDRGHFLSGWHTIYLPDCRPLTVLCDMDTDGGGWTVFQRRVDGSVDFYRDWATYKQGFGSRLGEFWLGNDNIHALTAQGTSELRVDLVDFEDNYQFAKYRSFKVADEAEKYNLVLGAFVEGSAGDSLTFHNNQSFSTKDQDNDLNTGNCAVMFQGAWWYKNCHVSNLNGRYLRGTHGSFANGINWKSGKGYNYSYKVSEMKVRPA |
|  | binds | Ficolin-3 in normal human serum (other, UniProt O75636 24-299, looked up, Native oligomeric serum protein) QEHPSCPGPRELEASKVVLLPSCPGAPGSPGEKGAPGPQGPPGPPGKMGPKGEPGDPVNLLRCQEGPRNCRELLSQGATLSGWYHLCLPEGRALPVFCDMDTEGGGWLVFQRRQDGSVDFFRSWSSYRAGFGNQESEFWLGNENLHQLTLQGNWELRVELEDFNGNRTFAHYATFRLLGEVDHYQLALGKFSEGTAGDSLSLHSGRPFTTYDADHDSSNSNCAVIVHGAWWYASCYRSNLNGRYAVSEAAAHKYGIDWASGRGVGHPYRRVRMMLR |
| binds |  | mannose-binding lectin (MBL) in normal human serum (other, UniProt P11226 21-248, looked up, Native oligomeric serum protein; also called serum MBL) ETVTCEDAQKTCPAVIACSSPGINGFPGKDGRDGTKGEKGEPGQGLRGLQGPPGKLGPPGNPGPSGSPGPKGQKGDPGKSPDGDSSLAASERKALQTEMARIKKWLTFSLGKQVGNKFFLTNGEIMTFEKVKALCVKFQASVATPRNAAENGAIQNLIKEEAFLGITDEKTEGQFVDLTGNRLTYTNWNEGEPNNAGSDEDCVLLLKNGQWNDVPCSTSHLAVCEFPI |
